Source: PMC3575012 (Scientific Reports, 2013)

Target: humanized 3D6 antibody Fab fragment (Bapineuzumab Fab) (humanized (murine parent 3D6) | not stated)
Experiment: MST

Substance | Kd [nM]
wild type amyloid-beta peptide, residues 1-28 | 151
wild type amyloid-beta peptide, residues 1-40 | 89
